These are literature values, as cited in patent US20250250647A1, “STABLE CELL CLONES HARBORING REPLICATING SARS-COV-2 RNA” (priority 2021, published 2025).

Chains of the proteins cited; added tags and fusions are not shown. Residues count along the entry.
UniProt P36888, 27-993 limits assumed: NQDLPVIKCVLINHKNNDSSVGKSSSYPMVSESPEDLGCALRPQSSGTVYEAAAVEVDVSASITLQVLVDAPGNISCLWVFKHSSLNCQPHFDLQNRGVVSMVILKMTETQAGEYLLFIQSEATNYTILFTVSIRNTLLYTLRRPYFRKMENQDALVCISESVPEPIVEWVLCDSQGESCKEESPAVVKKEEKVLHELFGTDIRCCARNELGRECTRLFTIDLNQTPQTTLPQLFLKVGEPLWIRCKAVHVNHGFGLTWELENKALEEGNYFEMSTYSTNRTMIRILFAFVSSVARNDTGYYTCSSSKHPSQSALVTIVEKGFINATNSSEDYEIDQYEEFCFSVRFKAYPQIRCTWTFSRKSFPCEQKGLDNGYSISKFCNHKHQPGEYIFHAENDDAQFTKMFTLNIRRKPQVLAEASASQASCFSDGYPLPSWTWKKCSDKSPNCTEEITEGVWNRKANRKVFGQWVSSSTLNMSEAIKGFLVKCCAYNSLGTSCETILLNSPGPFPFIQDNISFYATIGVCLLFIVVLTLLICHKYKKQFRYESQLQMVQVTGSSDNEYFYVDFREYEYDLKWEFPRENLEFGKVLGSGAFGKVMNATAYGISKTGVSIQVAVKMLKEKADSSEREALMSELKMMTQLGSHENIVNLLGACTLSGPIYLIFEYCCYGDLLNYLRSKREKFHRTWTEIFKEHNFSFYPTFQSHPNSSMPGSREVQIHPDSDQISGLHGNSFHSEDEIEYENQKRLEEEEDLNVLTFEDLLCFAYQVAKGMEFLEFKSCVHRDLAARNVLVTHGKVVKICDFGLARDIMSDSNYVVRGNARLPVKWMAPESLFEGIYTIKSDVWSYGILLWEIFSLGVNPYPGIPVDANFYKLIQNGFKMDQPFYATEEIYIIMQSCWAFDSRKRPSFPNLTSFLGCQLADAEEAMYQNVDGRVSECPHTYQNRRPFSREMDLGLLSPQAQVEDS
UniProt Q92793, 1085-1192 limits assumed: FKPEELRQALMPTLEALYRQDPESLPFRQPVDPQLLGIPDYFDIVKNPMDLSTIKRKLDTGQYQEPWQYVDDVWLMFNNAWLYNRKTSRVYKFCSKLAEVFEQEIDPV

Each structure is given as a SMILES string.

For one data set, the target named is FLT3 (Homo sapiens, UniProt P36888). The note with it: read-out: IC50 FLT3; cited from earlier work.
Another data set deals with CREBBP bromodomain (Homo sapiens, UniProt Q92793). The note with it: read-out: IC50 CREBBP bromodomain; tested form: HCl; cited from earlier work.

A word on the IC50: it is the concentration that gives 50% inhibition. In the case of `FC(F)(F)c1ccc(CNc2ccc(Cc3c[nH]c4ncc(Cl)cc34)cn2)cc1`, the concentration for half-maximal inhibition (IC50) at FLT3 was less than 1000 nM. On to `CCCOc1ccc(CCc2nc3cc(-c4c(C)noc4C)ccc3n2CCN2CCOCC2)cc1`, for which the concentration for half-maximal inhibition (IC50) at CREBBP bromodomain is 125 nM.
